Laboratory results published in publication PMC5106031.

Target: A2AR-CFP (UniProt P29274)
Experiment: FRET or BRET; acceptor photobleaching FRET in transfected HEK293 cells fixed with 4% PFA; CFP donor, YFP acceptor; confocal microscope; in Fig 5 cells treated with Istradefylline (30 nM, 0-60 min; or 10-100 nM, 30 min) or CGS 21680 HCl

YFP-PS1 (from UniProt P49768 1-467) (natural protein)
FRET efficiency: 0.17
